Assay results published in EP2365091A1, “Method of screening for HtrA protease inhibitors useful for prophylaxis and therapy of a bacterial infection” (Paul-Ehrlich-Institut, priority 2010, dated 2011).

Chains of the proteins cited; added tags and fusions are not shown. Residues count along the entry.
UniProt P09237, 95-267 limits assumed: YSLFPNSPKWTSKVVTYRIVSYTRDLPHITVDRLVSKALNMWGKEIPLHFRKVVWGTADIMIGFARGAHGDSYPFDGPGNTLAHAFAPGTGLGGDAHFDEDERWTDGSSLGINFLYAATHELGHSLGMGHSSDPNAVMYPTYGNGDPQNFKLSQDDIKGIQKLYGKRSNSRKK

Experiments:
[1] = target: T1, MMP-7 (Homo sapiens, UniProt P09237); test: In vitro cleavage of recombinant E-Cadherin by MMP-7 (Western blot); assay type: biochemical; conditions: 5 ng/µl MMP-7, 16 h, increasing concentrations (Fig. 8B)
Procedure: For in vitro cleavage studies, recombinant E-Cadherin, EGFR and JAM chimera, IgA or Casein, (R&D Systems, Wiesbaden, Germany) were incubated with HtrA^wt, HtrA^S205A or MMP7 in 50 mM HEPES (pH 7.4) at 37°C for 16 h. Where indicated, HHI or MMP inhibitor II were added. Reactions were stopped by boiling in Laemmli buffer, followed by 8% SDS-PAGE and Western blotting.

[2] = target: T1, MMP-7; conditions: stated in legend of Fig. 8B; 5 ng/µl MMP-7; cited from earlier work

## COc1ccc(S(=O)(=O)N2CC(C)(C)CN(S(=O)(=O)c3ccc(OC)cc3)C2C(=O)NO)cc1
[1]
  degradation of recombinant E-Cadherin by recombinant MMP-7: inhibited
[2]
  IC50: 30 nM
